Assay results published in US20200299375A1 (TILLOTTS PHARMA, published 2020).

Amino acid sequences for entries named in this document (tags omitted). Residues count along the entry.
UniProt P01375, 77-233 limits assumed: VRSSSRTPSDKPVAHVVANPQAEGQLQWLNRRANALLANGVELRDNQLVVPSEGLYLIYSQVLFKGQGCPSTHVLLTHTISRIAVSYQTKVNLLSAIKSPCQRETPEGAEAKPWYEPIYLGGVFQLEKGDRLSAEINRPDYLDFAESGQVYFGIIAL

Assays:
[1] = molecular target: T1, recombinant human TNFα (human, UniProt P01375 77-233); test: inhibition ELISA: biotinylated human TNFα pre-incubated with infliximab, binding to coated TNFRI-Fc detected with streptavidin-HRP [panels 17-22-B03-sc02 and 17-22-B03-sc08]
T1 construct: also called tumor necrosis factor alpha; TNFαtrimer

[2] = molecular target: T1, recombinant human TNFα; test: inhibition ELISA: biotinylated human TNFα pre-incubated with infliximab, binding to coated TNFRI-Fc detected with streptavidin-HRP [panel 17-22-B03-sc12]
[3] = molecular target: T1, recombinant human TNFα; test: cell-based or functional assay

- IC50 (read off the curve) [1]: ~0.05 µg/mL
- IC50 (read off the curve) [2]: ~0.05 µg/mL
- IC50, TNFα-induced apoptosis in L929 fibroblasts (100 pM human TNFα) [3]: 36.2 ng/mL
B1: infliximab (antibody, V domains shown)
VH: EVKLEESGGGLVQPGGSMKLSCVASGFIFSNHWMNWVRQSPEKGLEWVAEIRSKSINSATHYAESVKGRFTISRDDSKSAVYLQMTDLRTEDTGVYYCSRNYYGSTYDYWGQGTTLTVSS
VL: DILLTQSPAILSVSPGERVSFSCRASQFVGSSIHWYQQRTNGSPRLLIKYASESMSGIPSRFSGSGSGTDFTLSINTVESEDIADYYCQQSHSWPFTFGSGTNLEVKR
